Source: PubChem BioAssay (ICCB-Longwood Screening Facility, Harvard Medical School)
GIV Gai3 FP: GIV-Galpha-i interaction inhibition. P08753. Galpha-i3/FITC-GIV peptide fluorescence polarization, 90 min; active compounds read low; scaled: aluminum fluoride 0%, vehicle 100%. percent of control (FP), % (test concentration not listed). 210,000 compounds, 0.42% hits. AID 1224905;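 active = replicate mean at 85% of control or lower, very high polarization wells dropped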;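 also: lower values mean more displacement of the GIV peptide from Galpha-i3; wells of about 15 µL received 100 nL stock; the first replicate is given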
HCMV UL50-53 inh: disrupts HCMV UL50-UL53 complex binding | 0.15% of 190,000 active | HTRF UL50-UL53 interaction, normalized percent inhibition | inhibition, % (concentration not given with the values); in the data active = inhibition above about 27%, passing the limit was not always enough
* hit, by the source's call; . = no result. A selection: hits, their analogues and other compounds. The true share with any hit is near 0.46%.

SMILES | GIV Gai3 FP | HCMV UL50-53 inh
COc1cc(C=C2C(=O)NC(=S)NC2=O)cc(Cl)c1OCCOc1ccccc1C | 97 | -16
COc1cc(C=C2C(=O)NC(=O)NC2=O)cc(Cl)c1OCCOc1ccccc1C | 92 | 61*
COc1cc(C=C2C(=O)NC(=O)NC2=O)cc(Cl)c1OCc1ccc(Cl)cc1 | 87 | 72*
CC1(C(=O)O)CCC(c2nc3c4ccccc4ncn3n2)C1(C)C (stereo unspecified) | . | -21
CC(=O)Nc1ccc(-c2cc(C(=O)NC(C)c3ccccc3)c3ccccc3n2)cc1 (stereo unspecified) | 106 | .
CCOc1ccc(-c2c(C)nn3c(C)c(C(=O)Nc4ccc(N(CC)CC)cc4C)cnc23)cc1OCC | 105 | -6
CCSc1nnc(-c2sc3ccccc3c2Cl)o1 | . | 6
O=c1c2sccc2nc(SCc2nc(-c3ccc(Br)cc3)no2)n1C1CC1 | 107 | -37
COc1cc(C=C2C(=O)NC(=S)NC2=O)ccc1OCC(=O)O | 99 | .
COc1ccccc1OCCOc1c(Br)cc(C=C2C(=O)NC(=O)NC2=O)cc1OC | 104 | -1
O=C1NC(=O)C(=Cc2cc(Cl)c(OC(=O)c3ccccc3)c(Cl)c2)C(=O)N1 | 108 | 5
COc1ccc(C(=O)Oc2c(Cl)cc(C=C3C(=O)NC(=O)NC3=O)cc2OC)cc1 | 103 | 49*
COc1cc(C=C2C(=O)NC(=O)NC2=O)cc(Cl)c1OCC(=O)O | 96 | 72*
COc1ccccc1OCCOc1c(Cl)cc(C=C2C(=O)NC(=O)NC2=O)cc1OC | 106 | 63*
CCCCOc1ccc(C2C(N3C(=O)c4ccccc4C3=O)C(=O)N2c2ccc(Cl)cc2C)cc1 (stereo unspecified) | 123 | .
O=C(c1ccco1)N1CCc2c([nH]c3ccccc23)C1 | 112 | .
CS(=O)(=O)Nc1ccc(-c2ccc(C=C3SC(N)=NC3=O)o2)cc1 | . | -21
COc1cc(C=C2C(=O)NC(=O)NC2=O)ccc1OCc1ccccc1[N+](=O)[O-] | 101 | -11
COc1cc(C=C2C(=O)NC(=O)NC2=O)ccc1Oc1ccc([N+](=O)[O-])cc1[N+](=O)[O-] | 102 | 49*
CC(=O)Nc1cc(-c2nc(Cn3cnc(S(=O)(=O)N4CCCCC4)c3)no2)ccc1C | 110 | .
Cc1ccc2nc(-c3ccccc3NC(=O)c3ccccc3F)ccc2c1 | 102 | .
CCCCCOC(=O)C1=C(C)N(C)C(=O)NC1c1ccc(OCc2ccccc2)cc1 (stereo unspecified) | 100 | -12
CCOc1cc(C=C2C(=O)N(C)C(=O)N(C)C2=O)ccc1OCCOc1ccc(C)cc1 | 106 | 61*
CCOc1cc(C=C2C(=O)N(C)C(=O)N(C)C2=O)ccc1OCCOc1ccccc1 | 108 | 17
CCCCn1c(NC(=O)c2ccccc2)c(C#N)c2nc3ccccc3nc21 | . | 73
CCC(C)n1c(NC(=O)c2ccccc2)c(C#N)c2nc3ccccc3nc21 (stereo unspecified) | . | 72*
COc1ccc(-n2nc(N3CCC(C(=O)NCc4ccccc4)CC3)ccc2=O)cc1 | 103 | -84
N#Cc1c(N=CN2CCCCC2)nc2c(c1-c1ccccc1)CCCC2 | 101 | -23
N#Cc1c(S/C=C(\O)c2ccccc2)nc2c(c1C(F)(F)F)CCCC2 | -44* | -41
CCOC(=O)c1cc(-c2ccccc2)n(CCC(=O)NCc2cccs2)c1C | 104 | -16
Cc1ccc(C(C)NC(=O)c2ccc(Oc3ccnc(-c4cccc(C)c4)n3)cc2)cc1 (stereo unspecified) | 102 | .
CCSC1=N/C(=C\c2ccc(N(C)C)cc2)C(=O)S1 | 28* | -4
CCSC1=N/C(=C\c2ccc(C(=O)O)cc2)C(=O)S1 | 106 | .
Cc1cccc(NC(=O)C2Oc3ccccc3NC2=O)c1 (stereo unspecified) | 97 | .
CS(=O)CCNC(=O)Nc1ccc(Cl)c(Cl)c1 (stereo unspecified) | 107 | .
CNC(=O)CNC(=O)Nc1ccc(Cl)c(Cl)c1 | . | 44*
O=C(ON1C(=O)c2ccccc2C1=O)c1ccco1 | 108 | .
C=CCn1c(=N)c(C(=O)NCC2CCCO2)cc2c(=O)n3cccc(C)c3nc21 (stereo unspecified) | 112 | -65
CN1CCN(c2nc(N(C)C)nc3c2cnn3C)CC1 | 102 | -4
CCOCCCn1c(=S)[nH]c2cc(C(=O)N3CCN(Cc4ccc5c(c4)OCO5)CC3)ccc2c1=O | 114 | .

Looked up by structure from the entries so far (2):
SMILES | GIV Gai3 FP | HCMV UL50-53 inh
N#Cc1c(N=CN2CCCCC2)nc2c(c1-c1ccccc1)CCCC2 | 101 | -23
CCOCCCn1c(=S)[nH]c2cc(C(=O)N3CCN(Cc4ccc5c(c4)OCO5)CC3)ccc2c1=O | 114 | .

Copied from the results shown, 5 compounds:
SMILES | GIV Gai3 FP | HCMV UL50-53 inh
COc1cc(C=C2C(=O)NC(=S)NC2=O)cc(Cl)c1OCCOc1ccccc1C | 97 | -16
COc1cc(C=C2C(=O)NC(=O)NC2=O)cc(Cl)c1OCCOc1ccccc1C | 92 | 61*
COc1cc(C=C2C(=O)NC(=O)NC2=O)cc(Cl)c1OCc1ccc(Cl)cc1 | 87 | 72*
CC1(C(=O)O)CCC(c2nc3c4ccccc4ncn3n2)C1(C)C (stereo unspecified) | . | -21
CC(=O)Nc1ccc(-c2cc(C(=O)NC(C)c3ccccc3)c3ccccc3n2)cc1 (stereo unspecified) | 106 | .

More entries
SMILES | GIV Gai3 FP | HCMV UL50-53 inh
CCOc1ccc(S(=O)(=O)Nc2cc(Cl)c(O)c3ccccc23)cc1 | . | 59*
CCCOC(=O)c1c(C)oc2c1cc(NS(=O)(=O)c1ccc(OCC)cc1)c1ccccc12 | 108 | -43
Cc1ccc(N2CNC(=O)c3c(C)cc(C)nc32)cc1 | 107 | -5
O=C(O)C(O)C(O)c1ccccc1 (stereo unspecified) | . | -9
CCN(CC)c1ccc(C=C2C(=O)c3ccccc3C2=O)c(OC)c1 | -18* | .
O=C1c2ccccc2-c2nc3ccccc3nc21 | 104 | -135
CCOc1cccc(N2C(=O)/C(=C\c3ccc(N(CC)CC)cc3OC)C(=O)NC2=S)c1 | 222 | -14
CCC(=O)Nc1ccc2nc3c(=O)n(C)c(=O)n(C)c3nc2c1 | 102 | -152
CCN(CC)c1ccc2nc3c(=O)n(C)c(=O)n(C)c3nc2c1 | -26* | -138
CCN(CC)c1ccc2nc3c(nc2c1)C(=O)c1ccccc1C3=O | 107 | 64*
NS(=O)(=O)c1cc(C(=O)Nc2cccc(C(F)(F)F)c2)ccc1F | . | -2
COc1ccc2c(c1)c(CC(=O)NCc1ccccn1)c(C)n2C(=O)c1ccc(Cl)cc1 | 109 | .
Cc1cc2c(cc1C(=O)Nc1ccccc1)OCCCO2 | 105 | .
CCn1cc(Br)c(C(=O)OCC23COC4c5ccccc5OC(C)(CC2C)C4C3C)n1 (stereo unspecified) | 113 | .
Cc1cc(C)cc(NC(=O)c2sc3nc(-c4cc5ccccc5oc4=O)[nH]c(=O)c3c2C)c1 | 98 | -7
Cc1cccc(NC(=O)c2sc3nc(-c4cc5ccc(O)cc5oc4=O)[nH]c(=O)c3c2C)c1 | -66* | -18
O=C(NCC1CCCO1)c1nc(CS(=O)(=O)c2ccc(Cl)cc2)no1 (stereo unspecified) | 105 | .
CCOC(=O)N1CCC(NC(=O)C2CCCN(c3ncnc4c3sc3cccc(F)c34)C2)CC1 (stereo unspecified) | 103 | .
CCOC(=O)N1CCC(NC(=O)C2CCN(c3ncnc4c3sc3cccc(F)c34)CC2)CC1 | 101 | 53*
Cc1noc(C)c1C1CCCN1S(=O)(=O)c1ccc(Cl)s1 (stereo unspecified) | 97 | .
CSc1ncccc1C(=O)NC1(O)C(=O)c2ccccc2C1=O | 93 | 56*
CSc1ncccc1C(=O)Nc1ccccc1C | 104 | .
Cc1nc(C(=O)NC2(O)C(=O)c3ccccc3C2=O)cs1 | 95 | 60*
O=C(NC1(O)C(=O)c2ccccc2C1=O)c1cnn(-c2ccccc2)c1C(F)(F)F | 87 | 49
CSCC[C@H](NC(=O)[C@H](Cc1ccccc1)NC[C@@H](NC[C@@H](N)CS)C(C)C)C(=O)O | . | -14
COc1ccc(NC(=O)c2sc3nc(-c4ccc(OC)cc4)cc(C(F)(F)F)c3c2N)cc1 | 96 | -41
Nc1c(C(=O)Nc2ccc(F)cc2)sc2nc(-c3cccs3)cc(C(F)(F)F)c12 | -12* | -48
COc1ccc(CN2C(=O)C3CCCCC3C2=O)cc1S(=O)(=O)Nc1ccc2c(c1)OCO2 (stereo unspecified) | 97 | -17
